# miR-21 reporter: miR-21 reporter, rising signal; HeLa miR-21 FLuc reporter, luciferase, 48 h; Potency, µM (highest dose often 38.3 µM); 340,000 tested, under 10 active; AID 2288; active = well fitted rising curve with a large enough effect; inconclusive = small, poorly fitted or top-dose-only effect; inactive = no such curve, though single readings can be large or run the other way;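 further: miR-21 action dims this reporter so a rising signal means less miR-21 action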
#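 HeLa miR-21-FLuc reporter line, endogenous miR-21; 2000 cells/well in DMEM/10% FBS; compound titration up to ~40uM final, 48 h, 37 degree Celsius; luciferase detection reagent, 15 min lysis, CCD luminescence.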
# PTHR1 ag: activates the human parathyroid hormone receptor PTHR1. Q03431. HEK293 GP2 PTHR1 cells, GloSensor cAMP luminescence, 1 h. Potency, µM (highest dose often 115 µM), most hits filed as activators. 0.075% of 410,000 active. AID 743266; also: nearly all actives have a fitted effect of over 55% in size
#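 HEK-293-derived GP2 cells expressing PTHR1 and a GloSensor cAMP reporter, 3,000/well, plated overnight, given luciferin plus IBMX (each 0.5 mM as added) for 1 h at 37 °C, then compound for 1 h at 37 °C. Luminescence was read after 15 min at room temperature.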
# PINK1 expr mod: PINK1 expression modulation; 0.2% of 410,000 active; PINK1 immunofluorescence, high-content cytometry, 24 h; Potency, µM (top dose mostly 76.6 µM), usual class: activators; AID 624263; active = well fitted activation curve with a large enough effect; inconclusive = small, poorly fitted or top-dose-only effect; cell line not stated here; also: nearly all actives have a fitted effect of over 65% in size
#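 Stable cell line treated 24 h with compounds at 5 concentrations (CCCP controls), then fixed and immunostained for PINK1 plus nuclear and cell stains; PINK1 immunofluorescence quantified by laser-scanning microplate cytometry.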
# Giardia kill: Giardia lamblia killing; Giardia lamblia trophozoite viability; activity change, % at 7.66 µM, hits read low; 0.15% of 340,000 active; AID 540267; in the data active = activity change below about -80%; inconclusive = between about -30% and that limit;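 also: parasites exposed to compound for two days anaerobically before the ATP read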
#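 Trophozoite viability was measured as ATP-dependent luminescence, read 15-30 min after reagent addition. Before that, parasites at 100 cells/well were exposed to compounds for 48 h, anaerobically, at 37 deg C.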
# ERG Ets-DNA blk: inhibitors of human ERG Ets domain-DNA interaction; P11308; fluorescence polarization, His-ERG Ets domain / labelled DNA; Potency, µM (highest dose often 76.9 µM), hits mostly inhibitors; 0.028% of 370,000 active; AID 624246; active = well fitted inhibition curve with a large enough effect in the polarisation, with a control signal flat; inconclusive = small, poorly fitted or top-dose-only effect, or effect the other way, or a change in a side signal; inactive = no such curve, though single readings can be large or run the other way; the % refers to the polarisation;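 also: polarization taken with two DNA probes labelled with fluorescein and Texas red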
#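 His-tagged ERG Ets domain (1 uM in the protein solution; 300mM KCl, 50mM Tris-HCl, 1mM EDTA, 1mM DTT, pH 7.5) received compound, then a probe mix of 5 nM fluorescein-DNA and 100nM Texas-615-DNA. Fluorescence polarization was read for both dyes.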
# ALOX12 inh: ALOX12 (human) lipoxygenase inhibition; purified 12hLO, xylenol orange hydroperoxide absorbance; Potency, µM (doses to about 108 µM), usual class: inhibitors; 1.1% of 580,000 active
#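 Hydroperoxide product was detected by ferrous iron/xylenol orange as the 573 to 405 nm absorbance ratio. Arachidonic acid at 40 uM (final) was turned over for 30 min at room temperature by 150 nM human 12hLO, pH 7.0 Hepes buffer, after 15 min compound preincubation.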
# Numbers stand for hits; 0 = inactive; ? = inconclusive; - = not tested or not shown. Hits are enriched below; roughly 1.3% of the tested compounds scored in any of these assays. Unless noted, calls follow the shape of the dose curve; as a rule, active = well fitted curve in the direction sought with a large enough effect; inconclusive = small, poorly fitted or top-dose-only effect, or another doubt; inactive = no such curve, though single readings can be large; an effect the other way counts as inactive or inconclusive.
SMILES,miR-21 reporter,PTHR1 ag,PINK1 expr mod,Giardia kill,ERG Ets-DNA blk,ALOX12 inh
CCn1nc(NS(=O)(=O)c2ccccc2[N+](=O)[O-])c2cc3ccc(C)cc3nc21,0,0,0,0,0,-
COc1ccc(CNCCCSc2ncccn2)cc1OC,0,0,0,0,0,0
CS(=O)(=O)NC1CCCN(C(=O)c2ccc(F)cc2F)C1 (stereo not given),-,-,-,-,-,0
NC(=S)NN=C(Cc1ccccc1)Cc1ccccc1,?,0,0,0,0,11µM
COc1cccc(Cn2c(=O)n(Cc3ccccc3)c(=O)c3c2c2cc(OC)ccc2n3C)c1,0,0,0,-,0,0
CCN(CC)c1ccc2cc(-c3nc(-c4cc5ccccc5oc4=O)cs3)c(=O)oc2c1,-,0,32µM,0,0,0
CCN(CC)c1ccc2cc(-c3nc(-c4ccccc4)no3)c(=O)oc2c1,0,0,0,-,0,0
N#C/C(=C\c1cccnc1)C(=O)NC1CCCC1,-,-,-,-,-,0
N#C/C(=C\c1ccco1)C(=O)NC1CCCC1,-,-,-,-,-,40µM
N#C/C(=C\c1ccc([N+](=O)[O-])o1)C(=O)NC1CCCCC1,-,-,-,-,-,16µM
Clc1ccccc1-c1ccc2ncnc(NCc3cccs3)c2c1,-,0,?,0,-,0
CC(=O)NCCNc1ncnc2ccc(-c3ccccc3Cl)cc12,-,-,0,-,-,32µM
CCn1c(-c2cccnc2)nc2cc(NC(=O)COC)cc(C(=O)N3CCOc4ccccc4C3)c21,-,-,0,-,-,0
C=CCC12C=C(OC)C(=O)OC(OC)(C1O)[C@H](c1ccc3c(c1)OCO3)[C@H]2C (stereo not given in full),-,0,0,0,0,0
Cc1ccc2nc(/C(C#N)=C\c3ccc(N4CCOCC4)o3)[nH]c2c1,0,0,11µM,0,0,?
Cc1ccc(/C(C#N)=C\c2ccc(N3CCOCC3)o2)cc1,0,0,?,0,-,13µM
O=C(Nc1ccccc1Cl)c1cc2c(-c3ccccc3)nn(-c3ccccc3)c2s1,0,0,0,-,0,0
CC1CCCN(C(=O)c2ccc(NS(=O)(=O)c3ccc4[nH]c(=O)[nH]c4c3)cc2)C1 (stereo not given),-,0,0,0,0,0
CCCOC(=O)c1c[nH]c2ccccc12,-,-,-,-,-,0
O=C(Nc1ccc(OCC(F)(F)C(F)F)c(C(F)(F)F)c1)c1ccccc1O,0,0,16µM,0,0,0
O=C(Nc1ccc(OCC(F)(F)C(F)F)c(C(F)(F)F)c1)c1ccccc1,-,0,0,0,0,0
Cc1ccc(C(=O)n2c(N)nc3ccccc32)cc1,0,0,0,-81,0,0
CCCCCOc1ccc(NC(=O)c2cc(SC)ccc2Cl)cc1,0,0,14µM,0,0,0
O=C1NC(c2cccc(Br)c2)=N/C1=C\c1ccco1,0,0,0,0,0,45µM
FC(F)(F)c1cccc(NC(=S)NC(c2ccccc2)c2ccccc2)c1,?,0,?,0,0,35µM
SMILES,miR-21 reporter,PTHR1 ag,PINK1 expr mod,Giardia kill,ERG Ets-DNA blk,ALOX12 inh
Cc1ccc(OCCCc2c(C)n[nH]c2C)cc1,0,0,0,0,0,6.3µM
Cc1ccc(OCCNc2cc(N3CCN(CCO)CC3)ccc2[N+](=O)[O-])cc1C,0,0,0,0,0,?
O=C(Nc1cccc(Cl)c1)C1C2CCC3C(CCC21)C3(Cl)Cl (stereo not given),0,0,22µM,0,0,0
CC(C)c1ccc(C2OC(CCc3ccccc3)Cc3[nH]c(=S)[nH]c(=O)c32)cc1 (stereo not given),-,0,0,-,-,?
CC(C)(c1ccccc1)c1ccc(OCCCNCCO)cc1,0,0,0,0,0,0
CC(O)CNCCCOc1ccc(C(C)(C)c2ccccc2)cc1 (stereo not given),-,-,-,-,-,4.5µM
CCOCCCNC(=O)Cn1nc(C)c2ccccc2c1=O,-,-,-,-,-,0
COc1cccc2c1Oc1ncccc1N(C(=O)CCC(=O)NCc1ccc(F)cc1)C2,0,0,0,0,0,0
COc1cccc(CN2CCN(Cc3cc(OC)c(OC)c(OC)c3)CC2)c1OC,0,0,0,0,0,?
COc1ccc(CN2CCN(Cc3cccc(OC)c3OC)CC2)cc1,-,-,-,-,-,0.45µM
COc1ccc(CN2CCN(C/C=C/c3ccccc3)CC2)c(OC)c1OC,-,-,-,-,-,0.56µM
CNc1nc(N)c([N+](=O)[O-])c(NCC2CCCO2)n1 (stereo not given),0,0,0,0,0,0
CC1CCN(c2ccc(NC(=O)c3ccccc3SC3CCS(=O)(=O)C3)cc2)CC1 (stereo not given),-,-,-,-,-,6.3µM
CC1CCN(c2ccc(NC(=O)c3cccnc3Cl)cc2)CC1,0,0,0,0,0,0
COc1ccc(S(=O)(=O)n2oc(=O)cc2-c2ccccc2)cc1OC,0,0,0,0,0,14µM
O=c1cc(-c2ccccc2)n(S(=O)(=O)c2ccccc2)o1,0,0,0,0,0,10µM
CCN(CC)CCC(=O)N1c2ccccc2Sc2ccc(NC(=O)OC)cc21,0,0,0,0,0,28µM
COc1ccc(-n2nc([N+](=O)[O-])c(=NCCC3=CCCCC3)n2O)cc1,0,0,0,-91,0,0
CCc1ccc(N=c2c([N+](=O)[O-])nn(-c3ccccc3)n2O)cc1,0,0,0,?,0,-
Cc1ccc(CN=c2c([N+](=O)[O-])nn(-c3cccc(C)c3)n2O)cc1,0,0,0,-83,0,0
COc1ccc(-n2nc([N+](=O)[O-])c(=NC3CCN(Cc4ccccc4)CC3)n2O)cc1,0,0,0,-82,0,0
COc1ccc(-n2nc([N+](=O)[O-])c(=NCc3ccco3)n2O)cc1,0,0,0,0,0,0
COc1ccc(-n2nc([N+](=O)[O-])c(=NCc3cccnc3)n2O)cc1,0,0,0,-97,0,0
Cc1ccc(CN=c2c([N+](=O)[O-])nn(-c3cccc(Cl)c3)n2O)cc1,0,0,0,?,0,0
COc1ccc(S(=O)(=O)N(C)C[C@H]2Oc3ccc(NS(=O)(=O)c4ccc(F)cc4)cc3C(=O)N([C@H](C)CO)C[C@@H]2C)cc1,-,0,0,?,0,0
COc1ccc(-n2nc([N+](=O)[O-])c(=NCCc3ccc(Cl)cc3)n2O)cc1,0,0,0,-84,-,0
Cc1cc(C)cc(N=c2c([N+](=O)[O-])nn(-c3ccc(Cl)cc3)n2O)c1,0,0,0,?,0,0
COc1ccc(-n2nc([N+](=O)[O-])c(=NCCc3ccc(C)cc3)n2O)cc1,0,0,0,-93,0,0
COc1ccc(-n2nc([N+](=O)[O-])c(=NCCc3ccc(OC)c(OC)c3)n2O)cc1,0,0,0,-94,0,0
COc1ccc(CCNc2c([N+](=O)[O-])ncn2C)cc1OC,0,0,0,0,0,0
